From PubChem BioAssay AID687014 (The Scripps Research Institute Molecular Screening Center, 2013)
This is a selection; strong and weak results do not stand in their true shares. Some structures show a salt or complex split into parts, the way the source records it. Active and inactive are the calls of the source.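 The calls were made as follows: active = activation above a cutoff set at the mean of all screened compounds plus 3 SD (cut at about 10% in these data); inactive = the rest.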

Tested on: Nuclear hormone receptor DAF-12 (Heterodera glycines), GAL4 fusion
Assay: H. glycines DAF-12 receptor agonists, primary screen, cell-based, luminescence, HEK293, GAL4 fusion, UAS-luciferase (AID 687014);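 also: 0% = DMSO wells and 100% = sodium butyrate wells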
Details: HEK293 GAL4-hgDAF12 UAS-luciferase reporter, agonist luminescence; at 6.8 µM; stronger effect = higher value; normalized to butyrate control

Row | Compound | activation
1 | CCOC(=O)c1ccc(NP(C)(=O)Oc2ccc(F)cc2)cc1 (centres undefined) | inactive: -3.73%
2 | COc1ccc(OP(C)(=O)Nc2ccc(SC(F)(F)F)cc2)cc1 (centres undefined) | inactive: -5.6%
3 | CCN(CC)CCCNc1ccccc1[N+](=O)[O-].O=[N+]([O-])c1cc([N+](=O)[O-])c(O)c([N+](=O)[O-])c1 | inactive: 1.41%
4 | CP(=O)(Nc1ccccc1)Oc1ccc(F)cc1 (centres undefined) | inactive: 2.64%
5 | O=[N+]([O-])c1cc([N+](=O)[O-])c(OC2CCCCC2O)c([N+](=O)[O-])c1 (centres undefined) | inactive: 0.17%
6 | CCCCCOc1ccc(NP(C)(=O)Oc2ccc(Cl)cc2Cl)cc1 (centres undefined) | inactive: 0.19%
7 | Cc1c([N+](=O)[O-])cc([N+](=O)[O-])c(Br)c1[N+](=O)[O-] | inactive: -0.2%
8 | CCN(CC)CCCOC(=O)C(O)(c1ccccc1)C1CCCCC1 (centres undefined) | inactive: -1.48%
9 | CP(=O)(Nc1ccccc1F)Oc1ccccc1 (centres undefined) | inactive: 4.47%
10 | CC(C)c1ccc(OP(C)(=O)Nc2ccc(SC(F)(F)F)cc2)cc1 (centres undefined) | inactive: -0.98%
11 | O=[N+]([O-])c1cc([N+](=O)[O-])c(Nc2ccc(Cl)cc2)c([N+](=O)[O-])c1 | inactive: -1.84%
12 | COc1ccc2c(c1O)-c1c(O)c(OC)cc3c1[C@H](C2)[N+](C)(C)CC3.O=[N+]([O-])c1cc([N+](=O)[O-])c([O-])c([N+](=O)[O-])c1[O-] | inactive: 0.13%
13 | O=C(OC1CN2CCC1CC2)c1ccc([N+](=O)[O-])cc1 (centres undefined) | inactive: 0.02%
14 | O=C(OCCN1CCN(CCOCc2ccccc2)CC1)C(O)(c1ccccc1)c1ccccc1 | inactive: 0.12%
15 | CCOP(C)(=S)SCC(=O)NC(C)(CC)C(=O)O (centres undefined) | inactive: 0.68%
16 | CCOP(=O)(CC)OCC | inactive: -0.84%
17 | CP(=O)(Nc1ccc(SC(F)(F)F)cc1)Oc1ccc(F)cc1 (centres undefined) | inactive: -2.45%
18 | Cc1ccccc1NP(C)(=O)Nc1ccccc1C | inactive: -1.52%
19 | O=[N+]([O-])c1cc([N+](=O)[O-])c(C(F)(F)F)c([N+](=O)[O-])c1O | inactive: -3.33%
20 | CP(=O)(Nc1ccc2c(c1)OCCO2)Oc1ccccc1 (centres undefined) | inactive: -2.97%
21 | CN(C)CCOC(=O)C(O)(c1ccccc1)C1CCCCC1 (centres undefined) | inactive: -1.19%
22 | COc1ccc(NP(C)(=O)Oc2ccccc2OC)cc1 (centres undefined) | inactive: 4.03%
23 | COc1ccc(OP(C)(=O)Nc2cccc(Br)c2)cc1 (centres undefined) | inactive: -3.23%
24 | Cc1c(C(c2ccc3c(c2)OCO3)c2c(C)n(C)n(-c3ccccc3)c2=O)c(=O)n(-c2ccccc2)n1C.O=[N+]([O-])c1cc([N+](=O)[O-])c(O)c([N+](=O)[O-])c1 | inactive: -1.7%
25 | O=[N+]([O-])c1ccc(OP2(=O)COCCO2)cc1 (centres undefined) | inactive: 0.91%

Row | Compound | activation
26 | O=[N+]([O-])c1cc([N+](=O)[O-])c(NCC2CCS(=O)(=O)C2)c([N+](=O)[O-])c1 (centres undefined) | inactive: 0.43%
27 | Cc1cc(-c2cccc3ccccc23)c(C)cn1.O=[N+]([O-])c1cc([N+](=O)[O-])c(O)c([N+](=O)[O-])c1 | inactive: -2.07%
28 | CCOC(=O)c1ccc(NP(C)(=O)Oc2ccc(Cl)cc2)cc1 (centres undefined) | inactive: -0.46%
29 | CP(=O)(OC12CC3CC(CC(C3)C1)C2)OC12CC3CC(CC(C3)C1)C2 | inactive: -0.89%
30 | Nc1ccc2c(ccc3cccnc32)n1.O=[N+]([O-])c1cc([N+](=O)[O-])c(O)c([N+](=O)[O-])c1 | inactive: 0.96%
31 | COc1ccccc1OP(C)(=O)Nc1c(C)n(C)n(-c2ccccc2)c1=O (centres undefined) | inactive: 0.42%
32 | O=C(OCCCN1CCCC1)C(O)(c1ccccc1)C1CCCCC1 (centres undefined) | inactive: -0.5%
33 | CP(=O)(Oc1ccccc1)N1CCOC1=O (centres undefined) | inactive: -2.06%
34 | CCc1ccc(OP(C)(=O)Nc2cccnc2)cc1 (centres undefined) | inactive: -1.2%
35 | CCN(CC)CC(O)COC(=O)C(O)(c1ccccc1)C1CCCCC1 (centres undefined) | inactive: -2.06%
36 | COc1ccc(OP(C)(=O)Nc2ccc(Br)cc2)cc1 (centres undefined) | inactive: -1.24%
37 | CN(C)C(=O)c1c([N+](=O)[O-])cc([N+](=O)[O-])cc1[N+](=O)[O-] | inactive: -3.62%
38 | COc1ccccc1OP(C)(=O)Nc1ccccc1Br (centres undefined) | inactive: 0.01%
39 | CC(C)(C)c1ccc(OP(C)(=O)O)cc1 | inactive: 1.25%
40 | CP(=O)(Nc1ccc(Cl)cc1)Oc1ccc(F)cc1 (centres undefined) | inactive: 0.11%
41 | COc1ccc(OP(C)(=O)Nc2ccccn2)cc1 (centres undefined) | inactive: -0.21%
42 | CN(C)CCOC(=O)C(O)(c1ccccc1)C1CCCC1 (centres undefined) | inactive: -1.25%
43 | COc1ccccc1OP(C)(=O)Nc1ccc(Br)cc1 (centres undefined) | inactive: -1.75%
44 | CP(=O)(Nc1ccccn1)Oc1ccccc1 (centres undefined) | inactive: -0.36%
45 | COc1ccccc1OP(C)(=O)Nc1ccc(C)cc1C (centres undefined) | inactive: 0.34%
46 | CCc1ccc(OP(C)(=O)O)cc1 | inactive: 0.86%
47 | Cc1c(NP(C)(=O)Oc2ccc(C(C)C)cc2)c(=O)n(-c2ccccc2)n1C (centres undefined) | inactive: -1.46%
48 | O=[N+]([O-])c1cc([N+](=O)[O-])c(Nc2ccccn2)c([N+](=O)[O-])c1 | inactive: -4.69%
49 | COc1ccccc1OP(C)(=O)Nc1ccc(C)c(C)c1 (centres undefined) | inactive: -0.03%
50 | COc1ccc(OP(C)(=O)Nc2ccccc2Br)cc1 (centres undefined) | inactive: -2.28%

Row | Compound | activation
51 | O=C1C(O)=C([N+](=O)[O-])C(=O)C(O)=C1[N+](=O)[O-] | inactive: 1.67%
52 | Cc1cc(C)cc(OP(C)(=O)Nc2cccc(C(F)(F)F)c2)c1 (centres undefined) | inactive: 0.48%
53 | CP(=O)(Nc1ccc(Cl)cc1Cl)Oc1ccccc1 (centres undefined) | inactive: 4.07%
54 | CCCCCCCCCCCCCCCC1C[N+](C)(C)CCOP(C)(=O)O1 (centres undefined) | inactive: -0.68%
55 | CP(=O)(OCCOc1ccccc1)OCCOc1ccccc1 | inactive: -1.29%
56 | O=[N+]([O-])c1ccc2c(c1)C=Nc1ccccc1O2 | inactive: 0.92%
57 | CC(C)(C)c1ccc(OP(C)(=O)Nc2ccc(SC(F)(F)F)cc2)cc1 (centres undefined) | inactive: -3.1%
58 | Cc1cccc(C)c1OP(C)(N)=O (centres undefined) | inactive: -1.09%
59 | O=[N+]([O-])c1cc([N+](=O)[O-])c(Nc2cccnc2)c([N+](=O)[O-])c1 | inactive: -0.71%
60 | Cc1cc(C)cc(OP(C)(N)=O)c1 (centres undefined) | inactive: -0.1%
61 | COc1ccccc1OP(C)(=O)Nc1cc(Cl)ccc1C (centres undefined) | inactive: -3.2%
62 | COc1ccc(OP(C)(=O)Nc2cccc(F)c2)cc1 (centres undefined) | inactive: 2.63%
63 | COc1ccccc1OP(C)(=O)Nc1ccc(C)cc1 (centres undefined) | inactive: -1.86%
64 | Cc1ccc(NP(C)(=O)Oc2ccccc2)c(C)c1 (centres undefined) | inactive: -0.29%
65 | CCOC(=O)c1ccc(NP(C)(=O)Oc2ccccc2)cc1 (centres undefined) | inactive: -1.09%
66 | CCN(CC)CCCOC(=O)C(O)(c1ccccc1)c1ccccc1 | inactive: -1.55%
67 | COc1ccccc1-c1ccccn1.O=[N+]([O-])c1cc([N+](=O)[O-])c(O)c([N+](=O)[O-])c1 | inactive: 1.09%
68 | CP(=O)(NC(=O)Nc1ccccc1)Oc1ccccc1 (centres undefined) | inactive: 0.95%
69 | CCc1ccc(OP(C)(=O)N2CCN(c3ccc([N+](=O)[O-])cc3)CC2)cc1 (centres undefined) | inactive: -0.85%
70 | Cc1cc(C)cc(OP(C)(=O)Nc2ccc(SC(F)(F)F)cc2)c1 (centres undefined) | inactive: -1.11%
71 | Cc1cccc(C)c1OP(C)(=O)Nc1ccc(SC(F)(F)F)cc1 (centres undefined) | active: 10.5%
72 | CP(=O)(Nc1ccc(SC(F)(F)F)cc1)Oc1ccc(Cl)cc1 (centres undefined) | inactive: -2.3%
73 | CP(=O)(Oc1ccccc1)OC(c1ccccc1)C(F)(F)F (centres undefined) | inactive: 0.59%
74 | CP(=O)(Nc1ccccn1)Oc1ccc(Cl)cc1 (centres undefined) | inactive: -1.63%
75 | CCOC(=O)c1ccc(NP(C)(=O)Oc2ccc(OC)cc2)cc1 (centres undefined) | inactive: -1.17%

Row | Compound | activation
76 | O=[N+]([O-])c1cc([N+](=O)[O-])c(O)c([N+](=O)[O-])c1.c1ccc(Oc2ccncc2)cc1 | inactive: 0.41%
77 | CCOP(C)(=S)SCC(=O)NC(C)C(=O)O (centres undefined) | inactive: -0.43%
78 | CP(=O)(Nc1ccccc1Br)Oc1ccccc1 (centres undefined) | inactive: -1.06%
79 | COc1ccccc1OP(C)(=O)Nc1ccccc1 (centres undefined) | inactive: 1.93%
80 | CP(=S)(Nn1cnnc1)Oc1ccccc1 (centres undefined) | inactive: -0.26%
81 | O=[N+]([O-])c1cc([N+](=O)[O-])c(Nc2nnnn2CCO)c([N+](=O)[O-])c1 | inactive: -0.86%
82 | CCOC(=O)C(CC)C1=NC(C)(C)Cc2ccccc21.O=[N+]([O-])c1cc([N+](=O)[O-])c(O)c([N+](=O)[O-])c1 (centres undefined) | inactive: -1.27%
83 | COc1ccc(-c2ccccn2)cc1.O=[N+]([O-])c1cc([N+](=O)[O-])c(O)c([N+](=O)[O-])c1 | inactive: 5.41%
84 | CCCOc1ccc(NP(C)(=O)Oc2ccc(Cl)cc2)cc1 (centres undefined) | inactive: 1.81%
85 | CP(=O)(Nc1ccc(SC(F)(F)F)cc1)Oc1ccccc1 (centres undefined) | inactive: 0.24%
86 | COc1ccccc1OP(C)(=O)Nc1c(C)cccc1C (centres undefined) | inactive: 2.1%
87 | CN1CCCCC1COC(=O)C1(O)c2ccccc2CCc2ccccc21 (centres undefined) | inactive: -0.04%
88 | CN(Cc1cccnc1)C(=O)COc1ccc(Cl)c(Cl)c1.O=[N+]([O-])c1cc([N+](=O)[O-])c(O)c([N+](=O)[O-])c1 | inactive: 1.15%
89 | O=[N+]([O-])c1cc([N+](=O)[O-])c(-n2nnc3ccccc32)c([N+](=O)[O-])c1 | inactive: 0.56%
90 | Cc1nc2ccc3ccccc3c2s1.O=[N+]([O-])c1cc([N+](=O)[O-])c(O)c([N+](=O)[O-])c1 | inactive: 2.47%
91 | O=[N+]([O-])c1cc([N+](=O)[O-])c(-c2cnn(-c3ccccc3)c2)c([N+](=O)[O-])c1 | inactive: -2.89%
92 | CCOC(=O)c1ccc(NP(C)(=O)Oc2cc(C)cc(C)c2)cc1 (centres undefined) | inactive: -2.72%
93 | Cc1cc(C)cc(OP(C)(=O)Nc2ccc(C)cc2C)c1 (centres undefined) | inactive: 0.28%
94 | COc1ccccc1OP(C)(=O)Nc1cccc(Br)c1 (centres undefined) | inactive: -0.82%
95 | Cc1ccc(C)c(NP(C)(=O)Oc2ccccc2)c1 (centres undefined) | inactive: -0.32%
96 | Cc1cc(C)cc(OP(C)(=O)Nc2ccccn2)c1 (centres undefined) | inactive: 2.85%
97 | CP(=O)(Nc1cccc(Br)c1)Oc1ccccc1 (centres undefined) | inactive: 2.67%
98 | O=C(O)c1cccc(Nc2c([N+](=O)[O-])cc([N+](=O)[O-])cc2[N+](=O)[O-])c1 | inactive: 2.73%
99 | CC1=NCCc2c1[nH]c1ccccc21.O=[N+]([O-])c1cc([N+](=O)[O-])c(O)c([N+](=O)[O-])c1 | inactive: 3.84%
